Only a part is listed here, and it is no random draw. Activity calls are given as the source filed them. Rule as the data show it: active = activity change below about -30%; inconclusive = mostly about -25% to -30%; inactive = weaker than that.

Here are results for 101 compounds from PubChem BioAssay AID1347041 (National Center for Advancing Translational Sciences (NCATS), 2019).

In the experiment the target is L-lactate dehydrogenase A chain (Homo sapiens) (UniProt P00338). The experiment in a line: qHTS assay for inhibitors of human lactate dehydrogenase.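 Also: values are at about 110 or 230 µM; plate controls were DMSO wells for no effect and wells without enzyme for full effect.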 The settings on record: purified LDHA, NADH/diaphorase-resazurin fluorescence; hits give low values. From the text: LDH is a key glycolytic enzyme that catalyzes the final step in the glycolytic pathway, reducing pyruvate to lactate and regenerating NAD+ equivalents necessary for continued glycolysis. LDHA has been linked to the carcinogenesis and malignancy in numerous forms of cancers and many other diseases. Consequently, both pharma and academia have invested in significant research efforts to identify small molecule therapeutics. Such attempts have been stalled or abandoned due to limited success in discovering potent and drug-like inhibitors that can be utilized to validate LDHA in vivo as a drug target, a necessary step toward advancing such a molecule towards the clinic Towards this goal we designed and performed a quantitative high-throughput screening (qHTS) campaign to discover novel compounds that are potent inhibitors of LDHA enzyme activity and cancer cell line growth.
The assay was optimized to 1536-well plates. Briefly, 3 µL of human lactate dehydrogenase 5 (#A38558H, Meridian Life Science, Inc., Memphis, TN) in LDH assay buffer (200 mM Tris HCl pH 7.4, 100 microM EDTA and 0.01% Tween-20) was added to a black solid bottom 1536-well assay plate (Greiner Bio-One) using a BioRAPTR FRD dispenser (Beckman Coulter, Brea, CA). A 1536-well pintool dispenser outfitted with 20 nL pins (Wako Automation, San Diego, CA) was used to transfer 23 nL of DMSO-solubilized compound (both library and vehicle controls) to each 1536-well assay plate. Following compound transfer, 1 µL of substrate solution containing NADH and sodium pyruvate (Sigma-Aldrich, St. Louis, MO) in LDH assay buffer was dispensed via BioRAPTR FRD to initiate the reaction. Final concentrations in the 4 microL reaction volume were 2 nM LDHA enzyme, 0.06 mM NADH and 0.2 mM sodium pyruvate. Following a 5 minute incubation period at room temperature, 1 µL of detection reagent (C. kluyveri diaphorase (Sigma-Aldrich) and resazurin sodium salt (Sigma-Aldrich) in LDH assay buffer) was added to a total volume of 5 µL. Final concentrations of detection reagents were 0.133 mg/mL diaphorase and 37 µM resazurin. Plates were immediately transferred to a ViewLux microplate imager (PerkinElmer, Waltham, MA), and any resulting resorufin fluorescence was measured (ex540, em590 nm) at 0 and 20 minutes. Fluorescence was normalized using enzyme-free and DMSO-treated control wells on each plate.
On to `CCOC(=O)Nc1cccc([As](=O)(O)O)c1`, for which the activity change was inactive: -7.11%. Take `O=[N+]([O-])c1ccc(Nc2ccc(Oc3ccc([N+](=O)[O-])cc3[N+](=O)[O-])cc2)c([N+](=O)[O-])c1`: the activity change was inactive: -14.2%. The figure for `O=P(Nc1ccccn1)(c1cccc2ccccc12)c1cccc2ccccc12` is inactive: -6.17%. The figure for `Cc1cc(SC(NC=O)C(Cl)(Cl)Cl)ncn1` (stereo unspecified) is inactive: -0.838%; for `CC1CCNP(=O)(N(CCCl)CCCl)O1` (stereo unspecified) it is inactive: -4.58%. On to `CCOC(=O)Nc1ccc([As](=O)(O)O)c(O)c1`, for which the activity change is inactive: 2.38%.

Turning to `O=C(O)C(O)c1ccc(N(CCCl)CCCl)cc1` (stereo unspecified), the activity change was inactive: -1.19%. Regarding `CCCCOc1ccc(C(=O)NCC2(N3CCCCC3)CCCCC2)cc1OC`, the activity change is inactive: 0.467%. Then `O=C(/C=C/c1ccccc1)NC(Sc1ccc(Cl)cc1)C(Cl)(Cl)Cl` (stereo unspecified), with inactive: -0.334%. Take `Cc1cc(SC(NC(=O)c2ccccc2)C(Cl)(Cl)Cl)nc(C(C)C)n1` (stereo unspecified): the activity change is inactive: -0.965%. On to `COP(=O)(OC)N1CC1c1ccccc1` (stereo unspecified), for which the activity change was inactive: -4.25%.

Regarding `CCOC(=O)c1ccc(NC(=O)C(C)(CCl)SC)cc1` (stereo unspecified), the activity change was inactive: -6.66%. Take `O=C(OC1CN2CCC1CC2)c1cccc([N+](=O)[O-])c1` (stereo unspecified): the activity change is inactive: -10.7%.

Turning to `CSc1ccc(Nc2c([N+](=O)[O-])cc([N+](=O)[O-])cc2[N+](=O)[O-])cc1`, the activity change was inactive: 3.48%. Regarding `Clc1cccc(NC2=NCC(CBr)S2)c1` (stereo unspecified), the activity change is inactive: 2.43%. Turning to `CCOP(=O)(Nc1cccc2cccnc12)OCC`, the activity change was inactive: 11.3%.

For `CCC(C)N(CC(C)C)C(=S)SC(NC(C)=O)C(Cl)(Cl)Cl` (stereo unspecified), the activity change is inactive: 0.238%. As to `COP1(=S)c2c(C)nn(CCC#N)c2N=C(c2ccc(F)cc2)N1C` (stereo unspecified), the activity change is inactive: -17.1%. Then `COC(=O)C1(C)COP(=O)(N2CCCC2)OC1` (stereo unspecified), with inactive: -0.294%; and `O=C(COc1ccccc1)OC1CN2CCC1CC2` (stereo unspecified), with inactive: -4.86%; and `O=C(Nc1ccncc1[N+](=O)[O-])c1ccc([N+](=O)[O-])cc1[N+](=O)[O-]`, with inactive: 0.762%. Take `Cc1cccc(C(=O)NC(Sc2ccccc2)C(Cl)(Cl)Cl)c1` (stereo unspecified): the activity change was inactive: 2%. The figure for `O=C(O)C(=O)c1ccc(N(CCCl)CCCl)cc1` is inactive: -2.39%; for `COc1ccc(N/C(=N/P(=O)(N2CCOCC2)N2CCOCC2)N2CCOCC2)cc1` it is inactive: -1.88%.

For `O=[N+]([O-])c1cc(Oc2ccc([N+](=O)[O-])cc2C(F)(F)F)cc([N+](=O)[O-])c1`, the activity change is inactive: -2.24%. Then `O=C(OC1CN2CCC1CC2)C12CC3CC(CC(C3)C1)C2` (stereo unspecified), with inactive: -5.85%; and `Cc1cc(=O)[nH]c(N[N+](=O)[O-])n1`, with inactive: -3.6%. In the case of `Cc1c2c(nc3ccccc13)SC(C(Cl)Cl)C2` (stereo unspecified), the activity change is inactive: -8.63%.

As to `COc1ccc2nc(NP(=O)(c3ccccc3)c3ccccc3)sc2c1`, the activity change was inactive: -9.94%. Then `COc1cc(I)ccc1[As](=O)(O)O`, with inactive: -14.3%. Then `O=P1(N(CCCl)CCCl)OCCCN1CCCl` (stereo unspecified), with inactive: -8.29%; and `O=P1(N(CCCl)CCCl)Nc2ccccc2N1`, with inactive: 6.89%; and `CC(C)c1ccc(OP(=O)(Nc2ccccn2)Oc2ccccc2F)cc1` (stereo unspecified), with inactive: 2.11%. Consider `COC(=O)C1(C)COP(=O)(N2CCCCCC2)OC1` (stereo unspecified), for which the activity change was inactive: -5.2%.

In the case of `O=Cc1ccc(NCCCl)cc1`, the activity change was inactive: -16.3%. On to `ClCCSc1nnc(-c2cccnc2)o1`, for which the activity change is inactive: -5.32%.

In the case of `O=C(OC1CN2CCC1CC2)c1cccc2[nH]cnc12` (stereo unspecified), the activity change was inactive: -10.7%. The figure for `CCN(CC)C(=S)SC(NC=O)C(Cl)(Cl)Cl` (stereo unspecified) is inactive: 2.63%; for `CC(C)NC(=O)NP(=O)(Oc1ccccc1)Oc1ccccc1` it is inactive: -3.07%; for `O=[N+]([O-])c1cc([N+](=O)[O-])c(-c2ccn[nH]2)s1` it is inactive: 0.614%. Turning to `O=C(NC(Sc1ccc(Cl)cc1)C(Cl)(Cl)Cl)c1ccccc1` (stereo unspecified), the activity change was inactive: 12.3%. Take `C[As](=O)(O)c1cccc(C(=O)O)c1`: the activity change was inactive: -12.8%. As for `O=[As](O)(c1ccc(O)cc1)c1ccccc1O`, the activity change was inactive: 3.6%. Then `O=C(NC(Sc1ccccc1)C(Cl)(Cl)Cl)c1ccc(Cl)cc1` (stereo unspecified), with inactive: -0.642%; and `COc1cc(C(=O)NCC2(N3CCOCC3)CCCCC2)ccc1OCC(C)C`, with inactive: -1.22%. Then `O=[N+]([O-])c1ccc(-c2cc([N+](=O)[O-])c(O)c([N+](=O)[O-])c2)cc1`, with inactive: 14.9%; and `Fc1ccc(CNC2=NCC(CBr)S2)cc1` (stereo unspecified), with inactive: -6.24%; and `Cc1ccc2nc3c(c(C)c2c1)CC(C(Cl)Cl)S3` (stereo unspecified), with inactive: 9.98%.

With `[N-]=[N+]=NC1CCCCC1NC(=O)c1cc([N+](=O)[O-])cc([N+](=O)[O-])c1` (stereo unspecified), the activity change is inactive: 5.42%. The figure for `Cc1ccc(OP(=O)(Nc2ccc([N+](=O)[O-])cn2)Oc2ccc(C)cc2)cc1` is inactive: -3.24%.

As for `ClCCN(CCCl)c1ccc(CC2C=CC=C2)cc1`, the activity change is inactive: 5.95%. Take `NC(=O)Nc1ccc([As](=O)(O)O)cc1`: the activity change was inactive: -3.05%.

As to `Cc1ccc(C(=O)NC(Sc2ccccc2)C(Cl)(Cl)Cl)cc1` (stereo unspecified), the activity change is inactive: 1.23%.

As for `CN(C)C(=O)c1cc([N+](=O)[O-])cc2c1-c1c(cc([N+](=O)[O-])cc1[N+](=O)[O-])C2=O`, the activity change is inactive: 51%. As for `O=[N+]([O-])c1ccc2c(c1)nnn2O`, the activity change was inactive: -0.61%. The figure for `CN(C(=O)Cc1ccc(Cl)c(Cl)c1)[C@H]1CC[C@@]2(CCCO2)C[C@@H]1N1CCCC1` is inactive: -7.88%; for `N#CCCN(C(=O)COC(=O)C(O)(c1ccccc1)c1ccccc1)c1ccc(F)cc1` it is inactive: -4.83%; for `CN(C(=O)Cc1ccccc1)[C@@H]1CC[C@]2(CCCO2)C[C@H]1N1CCCC1` it is inactive: -10.3%. For the compound `CCOP1(=S)c2c(C)nn(CCC#N)c2N=C(c2ccc(F)cc2)N1C` (stereo unspecified), the activity change was inactive: 1.39%. Regarding `CS(=O)(=O)c1cc([N+](=O)[O-])c2no[n+]([O-])c2c1`, the activity change is inactive: 52.1%. `CCOP1(=S)c2c(C)nn(CCC#N)c2N=C(c2ccccc2F)N1C` (stereo unspecified): the activity change was inactive: -2.55%. The figure for `O=P(Nc1nccs1)(c1ccccc1)c1nc2ccccc2s1` (stereo unspecified) is active: -76.5%; for `O=P(Nc1nccs1)(Oc1ccccc1)Oc1ccccc1` it is inactive: -2.3%; for `Nc1ccccc1[As](=O)(O)c1ccccc1` it is inactive: 2.81%.

Regarding `O=C(O)COc1ccc([As](=O)(O)O)cc1[N+](=O)[O-]`, the activity change was inactive: -5.4%.

Regarding `CCCOP(=S)(Nc1nc(N)cc(=O)[nH]1)OCCC`, the activity change was inactive: 0.0893%.

For `Cc1ccc(C(=O)NC(Sc2ccc(Cl)cc2)C(Cl)(Cl)Cl)cc1` (stereo unspecified), the activity change is inactive: 1.12%.

With `NNc1ccc([N+](=O)[O-])cc1[N+](=O)[O-]`, the activity change was inactive: -7.24%. Regarding `Nc1cccc2c([As](=O)(O)O)cccc12`, the activity change was inactive: 8.39%. Then `Cc1ccc(NCCc2c([N+](=O)[O-])cc([N+](=O)[O-])cc2[N+](=O)[O-])cc1`, with inactive: 17.9%; and `COc1cc(C2NCCC3(OCCO3)C2(C)C)cc(OC)c1OC` (stereo unspecified), with inactive: -0.494%. As to `CCOP(=O)(Nc1cccc2ccccc12)OCC`, the activity change was inactive: -2.14%.

`COc1cc(C(=O)NCC2(N3CCOCC3)CCCCC2)cc(Cl)c1OC(C)C`: the activity change was inactive: -6.33%.

Turning to `O=[As](O)(O)c1cccnc1`, the activity change is inactive: -2.15%. In the case of `CS(=O)(=O)c1ccc(Cl)c(NC(=O)COC(=O)C(O)(c2ccccc2)c2ccccc2)c1`, the activity change is inactive: -3.44%. Then `O=C(OC1CN2CCC1CC2)c1ccc(Cl)cc1` (stereo unspecified), with inactive: -8.09%. On to `BrCC1CN=C(Nc2ccccc2)S1` (stereo unspecified), for which the activity change was inactive: 6.5%. For `Fc1ccc(NC2=NCC(CI)S2)c(F)c1` (stereo unspecified), the activity change is inactive: -1.33%. For `O=[As](O)(c1cccc(O)c1)c1cccc(O)c1`, the activity change is inactive: -0.299%. Then `Cc1cccc(OCC(=O)OC2CN3CCC2CC3)c1` (stereo unspecified), with inactive: -4.09%; and `COc1ccccc1CNC(=O)COC(=O)C(O)(c1ccccc1)c1ccccc1`, with inactive: -6.22%.

For `CC1(CBr)Cn2c(nc3ccccc3c2=O)S1` (stereo unspecified), the activity change was inactive: -0.89%. Consider `CC(C)/C=N\N=C(\N)N[N+](=O)[O-]`, for which the activity change is inactive: -2.51%.

Take `CN(C(=O)Cc1ccc(Cl)c(Cl)c1)[C@@H]1CCCC[C@H]1N1CCCC1`: the activity change was inactive: -9.8%. The figure for `ClCCNC1C2CC3CC(C2)CC1C3` (stereo unspecified) is inactive: 1.92%; for `CN(CCCl)Cc1cc(Cl)c(NC2=NCCN2)c(Cl)c1` it is inactive: -5.53%. Then `CCOP(=O)(Nc1ccc(C)cn1)OCC`, with inactive: 3.76%; and `O=P1(Nc2ccccn2)COc2ccccc2OC1`, with inactive: -5.88%; and `CCC1=CC2Cc3nc4ccc(Cl)cc4c(N)c3C(C1)C2` (stereo unspecified), with inactive: -2.12%.

For `CCOP(=O)(NC(=NC(C)c1ccccc1)NC(C)c1ccccc1)OCC` (stereo unspecified), the activity change was inactive: -2.38%. With `O=P1(N(CCCl)CCCl)NCCC(C(F)(F)F)O1` (stereo unspecified), the activity change is inactive: -6.28%. With `Clc1n[nH]nc1-c1nn[nH][15n]1`, the activity change was inactive: 0%. Regarding `CC(C)(C)C(=O)NC(Sc1ncccn1)C(Cl)(Cl)Cl` (stereo unspecified), the activity change is inactive: -3.37%.

Turning to `O=P1(Nc2ncccn2)COc2ccccc2OC1`, the activity change was inactive: -1.9%. Then `Cc1ccc(S(=O)(=O)N(CCCN)CCCc2c(C)nc(N)[nH]c2=O)cc1`, with inactive: -4.8%; and `O=P1(Nc2ccc(Br)cn2)COc2ccccc2OC1`, with inactive: -0.644%. The figure for `NS(=O)(=O)c1cccc(NC(=O)COC(=O)C(O)(c2ccccc2)c2ccccc2)c1` is inactive: 0.207%; for `O=[As](O)(c1cccs1)c1cccs1` it is inactive: -4.3%; for `Cc1ccc(OCC(=O)OC2CN3CCC2CC3)cc1` (stereo unspecified) it is inactive: 1.65%. Then `Nc1cccc([As](=O)(O)c2ccccc2)c1`, with inactive: -7.45%. `N#Cc1c(-c2ccc(-c3no[n+]([O-])c3C#N)cc2)no[n+]1[O-]`: the activity change was inactive: -7.49%.
